{"source": "PubChem BioAssay AID602296", "about": "(Broad Institute, 2012)", "tested_on": "NIH3T3-HGL HSF-1 response element luciferase, 48 h", "experiment": "HSF-1 reporter activators over prolonged exposure, confirmation, cell-based, mouse, luciferase, cherry-pick, dose (AID 602296);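 also: test compounds applied by themselves with no MG132 co-treatment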", "note": "Records with an inconclusive call do not appear. Calls of active or inactive are those of the source.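 The calls were made as follows: active = fitted activation curve crossing 40% at a concentration no higher than the sample's top valid tested dose; inconclusive = flat fitted curve at 30% to 70% activation, or poor curve fit; inactive = signal decrease, flat curve within 30%, or the rest.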"}
{"smiles": "COc1ccc(OP(C)(=O)Nc2ccccc2Br)cc1", "note": "(stereo unspecified)", "values": [{"measurement": "AC40", "result": "inactive: > 26 µM"}]}
